Results: patent EP0089900B1, “New N-((2-oxo-1-pyrrolidinyl)acetyl)piperazines, the methods of producing such new compounds and their salts as well as pharmaceutical preparations for therapeutic use containing these compounds or salts” (PRODES S.A., priority 1982, dated 1983)

What was measured:
Assay type in all cases: in vivo
mouse = assay: Protection against lethality: quick decapitation, gasping time; conditions: gasping time after decapitation of mouse; dose 40 mg/kg
Text: (§1) It is known that the nootropic drugs, as Piracetam, as well as the phenobarbital or hydantoin have a protection on the survival time of animals.
(§2) In the intention to increase the accuracy, we have a three trials panel in order to study the effect of the new synthetized drugs.
The second trial is the quick decapitation of mouse. The head has a typical mandibular movement, known as gasping, as searching the breathing air. The gasping time is well prolonged by the active- drugs.

animals [1] = assay: Protection against lethality: anoxia by CNK, survival time; conditions: dose 40 mg/kg
Text: as §1, §2
The third trial is by CNK. Obviously CNK kills the animals. Again the »protected« animals live a good number of seconds more than the controls.

animals [2] = assay: Protection against lethality: hypoxia-hypobara (decompression), survival time; conditions: dose 40 mg/kg
Text: as §1, §2

CCCC(C)C1(CC)C(=O)NC(=O)NC1=O (stereo not drawn) [Pentobarbital, reference compound]
Active: gasping (mouse) | anoxia by CNK (animals [1]) | hypoxia hypobara (animals [2])
